The values below come from patent US20210355066A1, “CB-0406 choline salt” (CymaBay Therapeutics, Inc., priority 2020, published 2021).

A value given as a limit tells only on which side of the number the result lay.

The solubility is the dissolved amount per volume that the medium holds. A lower solubility goes with little dissolved substance. In turn, “2-hydroxy-N,N,N-trimethylethan-1-aminium (2R)-2-(4-chlorophenyl)-2-[3-(trifluoromethyl)phenoxy]acetate [CB-0406 choline salt]” yielded a solubility (simulated intestinal fluid without pancreatin) above 200 mg/mL. For the same substance, under “simulated intestinal fluid, relative to CB-0406”, the “solubility in simulated intestinal fluid, fold greater than that of CB-0406” value is given as at least 60 fold.
